## AlphaSeq binding of Ab-14 heavy chain variants to a spike HR2 peptide

Target peptide (SARS-CoV-2 spike, HR2 region): PDVDLGDISGINAS

The variants keep the light chain, the linker and the frameworks of Ab-14 (scFv order VH, a 15-residue (Gly4Ser)3 linker, VL).
VH: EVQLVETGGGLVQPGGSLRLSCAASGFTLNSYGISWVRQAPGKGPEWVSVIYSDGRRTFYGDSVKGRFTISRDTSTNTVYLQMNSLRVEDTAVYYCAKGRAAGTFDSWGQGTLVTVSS
VL: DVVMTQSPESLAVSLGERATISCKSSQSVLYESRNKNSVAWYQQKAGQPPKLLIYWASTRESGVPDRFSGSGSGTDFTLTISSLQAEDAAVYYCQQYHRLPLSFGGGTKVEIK

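Phage display of a naive human antibody library on the peptide gave the parent. Designed CDR sequences, proposed from the first random library and measured here. Group labels follow the data file (Ctrl: baseline library sampled from a position-specific scoring matrix, with some repeated check sequences; Rand: our label for a block that the file lists under HC and that is probably the random mutants of the ten best first-round binders; En: ensemble of fine-tuned language models; GP: Gaussian process model; GPLM: also part of the Gaussian process libraries; HC: hill climbing; Gen: genetic algorithm; Gibbs: Gibbs sampling; a sequence that several methods proposed may carry one label only). AlphaSeq pools MATa yeast showing the antibodies with MATalpha yeast showing the peptide. The frequency of each diploid, read from paired DNA barcodes, reflects how well the two displayed proteins bind. A regression on co-assayed BCL2-family reference pairs converts the normalised counts of each replicate to an apparent Kd. Mating was done six times.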

Variants are written as CDR1, CDR2 and CDR3 of the heavy chain (limits as in the source). Parent: GFTLNSYGIS, VIYSDGRRTFYGDSVK, GRAAGTFDS. Values are apparent Kd, the geometric mean of the replicates that gave a signal; lower means stronger binding. Where no diploid with the target was found in any replicate, the entry reads "not detected": below detection, most likely a poor binder, though not proof of it. The range of this assay differs from that of the first round, and the authors advise against merging the two. Of ten entries with the parent sequence, four were seen in most replicates (averages 2.2 nM to 240 nM), three in one and three in none, so single entries are noisy. In the paper, a design with two or fewer of six values counts as a poor binder. Background: pairings of all heavy chain designs with three empty control strains gave a value in 1% of cases (median 120 nM, 5th percentile 7.0 nM). Values in that range, when seen in few replicates, are hard to tell from nonspecific mating.

{"CDR-H1": "GFTLNSYGIS", "CDR-H2": "VIYADGRRTFYGDSVK", "CDR-H3": "GEAAGTFDM", "group": "GPLM_Gen", "Kd (apparent)": "440 pM", "replicates with signal": "6 of 6"}
{"CDR-H1": "GFDLNEYGIS", "CDR-H2": "VIYADGLRTAYADDVK", "CDR-H3": "GNVAGTFDL", "group": "En_Gen", "Kd (apparent)": "530 pM", "replicates with signal": "6 of 6"}
{"CDR-H1": "GFTLQSYGIS", "CDR-H2": "VIYSDGRRTFYGDSVK", "CDR-H3": "GRAAGTFNI", "group": "Ctrl", "Kd (apparent)": "not detected", "replicates with signal": "0 of 6"}
{"CDR-H1": "GFTLNDYGIS", "CDR-H2": "VIYSDGRRTQYIDSVK", "CDR-H3": "GKAAGTFDS", "group": "GPLM_HC", "Kd (apparent)": "5.1 nM", "replicates with signal": "1 of 6"}
{"CDR-H1": "GFHLNSYGIS", "CDR-H2": "VIYSDGRRTFYRDSVK", "CDR-H3": "GQTAGTFDS", "group": "GP_Gibbs", "Kd (apparent)": "22 nM", "replicates with signal": "6 of 6"}
{"CDR-H1": "GFALNEYGIS", "CDR-H2": "VIYSDGRRTAYGDSVK", "CDR-H3": "GRAAGTFDS", "group": "GP_Gibbs", "Kd (apparent)": "1.4 nM", "replicates with signal": "6 of 6"}
{"CDR-H1": "GFDLEDYGIS", "CDR-H2": "VIYADGRRTFYADSVK", "CDR-H3": "GNVAGTFIV", "group": "En_HC", "Kd (apparent)": "1.4 nM", "replicates with signal": "6 of 6"}
{"CDR-H1": "GFDLDEYGIS", "CDR-H2": "VIYADGMRTAYSDSVK", "CDR-H3": "GNQAGTFDV", "group": "En_Gen", "Kd (apparent)": "480 pM", "replicates with signal": "6 of 6"}
{"CDR-H1": "GFDLNSYGIS", "CDR-H2": "VIYADGIRTFYGDSVK", "CDR-H3": "GRAAGTFPS", "group": "Ctrl", "Kd (apparent)": "240 pM", "replicates with signal": "6 of 6"}
{"CDR-H1": "GFDLNEYGIS", "CDR-H2": "VIYADGKRTAYADKVK", "CDR-H3": "GQNAGTFDV", "group": "En_Gen", "Kd (apparent)": "53 pM", "replicates with signal": "6 of 6"}
{"CDR-H1": "GFDIQEYGIS", "CDR-H2": "VIYADGIRSAYINNVK", "CDR-H3": "GDYGSQFFE", "group": "En_Gibbs", "Kd (apparent)": "not detected", "replicates with signal": "0 of 6"}
{"CDR-H1": "GFDLNSYGIS", "CDR-H2": "VIYSDGRRTFYGDSVK", "CDR-H3": "GRAAATFDV", "group": "GP_Gibbs", "Kd (apparent)": "not detected", "replicates with signal": "0 of 6"}
{"CDR-H1": "GFSLEEYGIS", "CDR-H2": "VIYADGKRTFYVNAVK", "CDR-H3": "GTWGDFGLG", "group": "En_Gibbs", "Kd (apparent)": "240 nM", "replicates with signal": "1 of 6"}
{"CDR-H1": "GFDINEYGVS", "CDR-H2": "VIYADGMRSYYQDKVK", "CDR-H3": "GSNGSLFDV", "group": "En_Gibbs", "Kd (apparent)": "not detected", "replicates with signal": "0 of 6"}
{"CDR-H1": "GFDLHSYGES", "CDR-H2": "VIYSDGRRTFYGDSVK", "CDR-H3": "GRAAGWFNS", "group": "Rand", "Kd (apparent)": "not detected", "replicates with signal": "0 of 6"}
{"CDR-H1": "GFNLDEYGIS", "CDR-H2": "VIYADGRRTFYQDSVK", "CDR-H3": "GEVAGTFDL", "group": "En_HC", "Kd (apparent)": "230 pM", "replicates with signal": "6 of 6"}
{"CDR-H1": "GFDLNEYGIS", "CDR-H2": "VIYADGRRTAYVDSVK", "CDR-H3": "GTNAGTFDQ", "group": "En_HC", "Kd (apparent)": "650 pM", "replicates with signal": "6 of 6"}
{"CDR-H1": "GFDLNEYGIS", "CDR-H2": "VIYADGMRTAYADTVK", "CDR-H3": "GNVAGTFDQ", "group": "En_Gen", "Kd (apparent)": "410 pM", "replicates with signal": "6 of 6"}
{"CDR-H1": "GFDLNEYGIS", "CDR-H2": "VIYADGRRTAYTDSVK", "CDR-H3": "GANAGTFDM", "group": "En_HC", "Kd (apparent)": "400 pM", "replicates with signal": "6 of 6"}
{"CDR-H1": "GFTLNSYGIS", "CDR-H2": "VIYSDGRRTFYGDAVK", "CDR-H3": "HREQATFDS", "group": "Ctrl", "Kd (apparent)": "not detected", "replicates with signal": "0 of 6"}
{"CDR-H1": "GFDLDEYGIS", "CDR-H2": "VIYADGMRTQYADSVK", "CDR-H3": "GNVAGTFDV", "group": "En_Gen", "Kd (apparent)": "1.0 nM", "replicates with signal": "5 of 6"}
{"CDR-H1": "GFSLNEYGIS", "CDR-H2": "VIYSDGRRTFYGDSVK", "CDR-H3": "GRLAGTFIS", "group": "GP_HC", "Kd (apparent)": "84 nM", "replicates with signal": "1 of 6"}
{"CDR-H1": "GFELNSYGIS", "CDR-H2": "VIYSDGRRTFYGDQVK", "CDR-H3": "GITAGTFDS", "group": "GP_Gibbs", "Kd (apparent)": "6.3 nM", "replicates with signal": "6 of 6"}
{"CDR-H1": "GQDLNEYGIS", "CDR-H2": "VIYADGLRTAYSNNFK", "CDR-H3": "GVQAGFDQG", "group": "En_Gibbs", "Kd (apparent)": "not detected", "replicates with signal": "0 of 6"}
{"CDR-H1": "GFTLNSYGIS", "CDR-H2": "VIYSDGRRTSYEDSVK", "CDR-H3": "GRAAGTFDD", "group": "Ctrl", "Kd (apparent)": "50 nM", "replicates with signal": "6 of 6"}
{"CDR-H1": "GFTLNSYGIS", "CDR-H2": "VIYSDGRRTYYGDSVK", "CDR-H3": "GMAAGTFDQ", "group": "Ctrl", "Kd (apparent)": "1.1 nM", "replicates with signal": "6 of 6"}
{"CDR-H1": "GFDLNSYGIS", "CDR-H2": "VIYSDGRRTFYGDQVK", "CDR-H3": "GREAGTFDS", "group": "GP_Gen", "Kd (apparent)": "2.2 nM", "replicates with signal": "6 of 6"}
{"CDR-H1": "GFTLNSYGIS", "CDR-H2": "VIYSDGRRTFYTDSVK", "CDR-H3": "GNAAGTFDS", "group": "GPLM_Gen", "Kd (apparent)": "11 nM", "replicates with signal": "6 of 6"}
{"CDR-H1": "GFTLNSYGIS", "CDR-H2": "VIYSDGRRTFYGDSVK", "CDR-H3": "GRVAGTFDN", "group": "GPLM_Gen", "Kd (apparent)": "260 nM", "replicates with signal": "1 of 6"}

The 5 strongest on average among those seen in every replicate, once more:

{"CDR-H1": "GFDLNEYGIS", "CDR-H2": "VIYADGKRTAYADKVK", "CDR-H3": "GQNAGTFDV", "group": "En_Gen", "Kd (apparent)": "53 pM", "replicates with signal": "6 of 6"}
{"CDR-H1": "GFNLDEYGIS", "CDR-H2": "VIYADGRRTFYQDSVK", "CDR-H3": "GEVAGTFDL", "group": "En_HC", "Kd (apparent)": "230 pM", "replicates with signal": "6 of 6"}
{"CDR-H1": "GFDLNSYGIS", "CDR-H2": "VIYADGIRTFYGDSVK", "CDR-H3": "GRAAGTFPS", "group": "Ctrl", "Kd (apparent)": "240 pM", "replicates with signal": "6 of 6"}
{"CDR-H1": "GFDLNEYGIS", "CDR-H2": "VIYADGRRTAYTDSVK", "CDR-H3": "GANAGTFDM", "group": "En_HC", "Kd (apparent)": "400 pM", "replicates with signal": "6 of 6"}
{"CDR-H1": "GFDLNEYGIS", "CDR-H2": "VIYADGMRTAYADTVK", "CDR-H3": "GNVAGTFDQ", "group": "En_Gen", "Kd (apparent)": "410 pM", "replicates with signal": "6 of 6"}

Values reported by Li et al. 2023, doi:10.1038/s41467-023-39022-2 (FLAb copy).